Literature values, collected in US4939177A, “Use of avarol for the control of AIDS and ARC” (Merz + Co. GmbH & Co., priority 1986, dated 1990).

Test system: L5178y cells
Conditions: NMRI mice bearing L5178y cells; cited from earlier work

## CC1=CCC[C@H]2[C@](C)(Cc3cc(O)ccc3O)[C@@H](C)CC[C@]12C [Avarol, 2-[(1R)-1,2,3,4,4a,7,8,8aα-octahydro-1β,2β,4aβ,5-tetramethyl-1-naphthylmethyl]-1,4-benzenediol]
  chemotherapeutical dose: 1 to 50 mg/kg
